Measured values reported in ChEMBL document CHEMBL1177813, “Design and synthesis of trivalent ligands targeting opioid, cholecystokinin, and melanocortin receptors for the treatment of pain” (Bioorg Med Chem Lett, 2010).

Protein sequences, listed by entry. Tags and fused reporters are not part of them.
UniProt P97266, whole entry, looked up: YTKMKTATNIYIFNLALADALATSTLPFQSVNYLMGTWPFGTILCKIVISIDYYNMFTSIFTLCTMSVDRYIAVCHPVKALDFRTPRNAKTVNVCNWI

Biological target: Mu-type opioid receptor (Cavia porcellus, UniProt P97266)
Assay: Agonist activity at mu opioid receptor in guinea pig ileum assessed as inhibition of electrically-stimulated muscle contraction

`C[C@@H](NC(=O)[C@@H](N)Cc1ccc(O)cc1)C(=O)NCC(=O)N[C@@H](Cc1ccccc1)C(N)=O` showed an IC50 of 47 nM.
